Values of other authors in US11325900B2, “5-(pyrimidin-4-yl)thiazol-2-yl urea derivatives as therapeutic agents” (AUCENTRA HOLDINGS PTY LTD, priority 2018, dated 2022).

The chains behind the UniProt entries cited, without tags or fusion partners. Where a name states a change or a piece, a line headed by the entry shows the natural chain unless it says otherwise.
UniProt P49336: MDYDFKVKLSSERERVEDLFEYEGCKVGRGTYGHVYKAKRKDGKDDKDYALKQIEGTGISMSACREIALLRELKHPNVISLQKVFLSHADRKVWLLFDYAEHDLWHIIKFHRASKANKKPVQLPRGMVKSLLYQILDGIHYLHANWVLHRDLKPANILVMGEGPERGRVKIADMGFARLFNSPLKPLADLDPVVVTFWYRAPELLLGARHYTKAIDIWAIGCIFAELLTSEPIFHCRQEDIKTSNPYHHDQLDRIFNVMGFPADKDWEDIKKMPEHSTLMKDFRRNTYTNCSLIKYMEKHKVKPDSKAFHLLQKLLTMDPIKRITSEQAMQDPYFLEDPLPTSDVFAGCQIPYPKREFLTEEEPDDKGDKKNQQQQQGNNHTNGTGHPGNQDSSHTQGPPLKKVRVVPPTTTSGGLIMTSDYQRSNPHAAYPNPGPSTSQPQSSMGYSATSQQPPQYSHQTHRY

Target: CDK8 (Homo sapiens, UniProt P49336)
Conditions: background, Pelish et al. 2015; cited from earlier work

## cortistatin A
  CDK8 inhibition (in words): potent and selective inhibitor of CDK8
